Measured values as given in PMC5132201, “Formylated MHC Class Ib Binding Peptides Activate Both Human and Mouse Neutrophils Primarily through Formyl Peptide Receptor 1” (PLoS ONE, 2016).

System: Fpr2^-/- neutrophils
Experiment: NADPH-oxidase activity in neutrophils from wild type versus Fpr2-/- mice
Assay type: cell-based, mouse

For `CC[C@H](C)[C@H](NC(=O)[C@H](CC(N)=O)NC(=O)[C@@H](NC(=O)[C@H](Cc1ccccc1)NC(=O)[C@H](Cc1ccc(O)cc1)NC(=O)[C@H](CCSC)NC=O)[C@@H](C)CC)C(=O)N[C@@H](CC(C)C)C(=O)N[C@H](C(=O)N[C@@H](CC(C)C)C(=O)O)[C@@H](C)O` (For-MYFINILTL-OH; C-terminus assumed), the “Activity in Fpr2-/- neutrophils compared with WT neutrophils” value was “comparable”.

Peptide text beside a SMILES is read from it. * marks the point of attachment. For = O=C*
